The list shows a part of the results, in another mix than the full data. Active and inactive are the calls of the source. Cut-off read from the data, not from the text of the source: active = displacement above about 50%; inactive = the rest.

Sequences of proteins named here, by UniProt entry; tags and fusion partners are left off.
UniProt P98170, whole entry: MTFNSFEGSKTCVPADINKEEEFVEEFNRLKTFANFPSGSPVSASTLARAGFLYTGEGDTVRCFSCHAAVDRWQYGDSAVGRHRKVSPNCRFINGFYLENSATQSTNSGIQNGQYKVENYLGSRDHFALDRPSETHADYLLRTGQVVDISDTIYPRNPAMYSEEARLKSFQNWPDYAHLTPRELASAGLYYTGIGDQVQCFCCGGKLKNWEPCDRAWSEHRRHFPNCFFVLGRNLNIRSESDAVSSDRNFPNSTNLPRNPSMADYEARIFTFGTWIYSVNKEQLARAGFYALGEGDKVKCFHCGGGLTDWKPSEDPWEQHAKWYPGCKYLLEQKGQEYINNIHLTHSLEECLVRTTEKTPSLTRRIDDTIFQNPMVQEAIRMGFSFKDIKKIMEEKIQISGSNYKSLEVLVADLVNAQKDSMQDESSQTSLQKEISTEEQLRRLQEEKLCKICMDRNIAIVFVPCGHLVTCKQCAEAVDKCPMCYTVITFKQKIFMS

The test addresses E3 ubiquitin-protein ligase XIAP (Homo sapiens) (UniProt P98170). The test can be described thus: small molecules displacing peptide from XIAP – biochemical, IAP family, fluorescence polarization (AID 1018). The note with it: XIAP BIR domain, at 20 µM, stronger effect = higher value. For orientation: Polarisation of emitted light reports the rotation of a fluorescent probe.
`CCN1CCC(Nc2cccc(F)c2)CC1`: the displacement was inactive: -3.8%.
The same measure for `CN(C)c1ccc(C(=O)NCC2(N3CCCCC3)CCCCC2)cc1`: inactive: -3.2%; for `Fc1ccccc1NC1CCN(Cc2ccccc2)CC1`: inactive: -7%; for `CCC(CO)(C(=O)OC1CN2CCC1CC2)c1ccccc1` (stereo not given): inactive: -8.8%.
With `COc1cc(OC)cc(C(=O)NCC2(N3CCOCC3)CCCCC2)c1` the figure was inactive: -2.7%; with `CCOc1ncccc1C(=O)NCC1(N2CCOCC2)CCCCC1`, inactive: -2.3%.
For `CC(C)(C)OC(=O)N1CCC(Nc2ccccc2)CC1`, the displacement was inactive: -4.3%.
With `N/C(=N\O)c1c(N)no[n+]1[O-]` the figure was inactive: 2.5%; with `O=C(OC1CN2CCC1CC2)C1c2ccccc2C=Cc2ccccc21` (stereo not given), inactive: -1.7%; with `COc1ccc(C(=O)NCC2(N3CCOCC3)CCCCC2)cc1OC`, inactive: -3.2%.
For `c1ccc(CN2CCC(Nc3ccccc3)CC2)cc1`, the displacement is inactive: -4.2%.
The same measure for `N#Cc1ccc(C(=O)NCC2(N3CCCCC3)CCCCC2)cc1`: inactive: -10%; for `COc1ccc(NC2CCN(C(=O)OC(C)(C)C)CC2)cc1`: inactive: -4.6%.
The same measure for `CN1CCN(CCOC(=O)C(O)(c2ccccc2)c2ccccc2)CC1`: inactive: -3%; for `O=C(NCC1(N2CCOCC2)CCCCC1)c1cc(=O)[nH]c2ccccc12`: inactive: -5.2%.
The same measure for `O=C(NCC1(N2CCCCC2)CCCCC1)c1cccc([N+](=O)[O-])c1`: inactive: -5.4%.
For the compound `N#CC1(Nc2ccccc2)CCN(CCc2ccccc2)CC1`, the displacement is inactive: -4.2%.
The same measure for `COc1ccc(CN(CCCl)CCCl)cc1Cl`: inactive: 0.5%; for `CN(C)c1cccc(C(=O)NCC2(N3CCCCC3)CCCCC2)c1`: inactive: -5.8%.
The same measure for `CC(C)c1ccc(NC2CCN(C(=O)OC(C)(C)C)CC2)cc1`: inactive: -10.6%.
With `O=C(NCC1(N2CCOCC2)CCCCC1)c1cc2ccccc2o1` the figure was inactive: -2%.
Turning to `CCOC(=O)N1CCC(Nc2ccc(OC)cc2)CC1`, the displacement was inactive: -4.3%.
With `O=C(OC1CN2CCC1CC2)C1c2ccccc2Oc2ccccc21` (stereo not given) the figure was inactive: -6.1%; with `COc1ccc(C(=O)NCC2(N3CCCCC3)CCCCC2)c(OC)c1OC`, inactive: -8.9%.
The same measure for `COc1ccc(NC2CCN(CCc3ccccc3)CC2)c(OC)c1`: inactive: -6.8%.

Source of the values: PubChem BioAssay AID1018 (Sanford-Burnham Center for Chemical Genomics, 2008).
